According to patent US9050375B2, “Bi-specific digoxigenin binding antibodies” (priority 2009, dated 2015):
Where two headings read alike, the source gives them in different places.

Tested on: H322M cells
Test: CytoTox-Glo assay of peptides and DIG-modified variants
Assay type: cell-based, human
Details: 48 hours
Description: To evaluate whether additions or alterations of the peptide Melittin, FALLv1 and FALLv2 by digoxygenin alters its biological activity, we performed in vitro assays. As these peptides are cytotoxic, their biological activity can easily be analyzed by monitoring the number of dead cells. To measure this number, the CytoTox-Glo assay (Promega Madison, Wis.) was used.
For these assays, H322M cells were seeded at a density of 15.000 cells per well in 96 well plates. The cells were incubated for 24 hours at 37° C., 5% CO2 and 85% humidity in RPMI with 10% FCS, Na+Pyrovate, L-Glutamine and NEAA mix. The peptide and it's DIG-modified variant were then added to the cells in the concentrations indicated. The cells were incubated for further 48 hours. After this period, the cells were treated with the CytoTox-Glo-assay reagent according to the manufacturers instructions. In brief, this assay detects dead cells via the presence of a protease in the medium that cleaves a fluorogenic peptide in the reagent. The luminescence of this assay therefore represents dead cells. The 96 well plates were then analyzed in a InfiniteF200 luminescence reader (Tecan Austria, Gröding).

With `CC[C@H](C)[C@H](NC(=O)CN)C(=O)NCC(=O)N[C@@H](C)C(=O)N[C@H](C(=O)N[C@@H](CC(C)C)C(=O)N[C@@H](CCCCN)C(=O)N[C@H](C(=O)N[C@@H](CC(C)C)C(=O)N[C@H](C(=O)N[C@H](C(=O)NCC(=O)N[C@@H](CC(C)C)C(=O)N1CCC[C@H]1C(=O)N[C@@H](C)C(=O)N[C@@H](CC(C)C)C(=O)N[C@H](C(=O)N[C@@H](CO)C(=O)N[C@@H](Cc1c[nH]c2ccccc12)C(=O)N[C@H](C(=O)N[C@@H](CCCCN)C(=O)N[C@@H](CCCNC(=N)N)C(=O)N[C@@H](CCCCN)C(=O)N[C@@H](CCCNC(=N)N)C(=O)N[C@@H](CCC(N)=O)C(=O)N[C@@H](CCC(N)=O)C(N)=O)[C@@H](C)CC)[C@@H](C)CC)[C@@H](C)O)[C@@H](C)O)C(C)C)C(C)C` [Melittin] the IC50 (read-out: IC50 value of the CytoTox-Glo assay) was 3.28 µM and the IC50 (CytoTox-Glo, read-out: IC50 unmodified peptide) was 3.3 µM.
